Test results taken from PubChem BioAssay AID1224865 (Sanford-Burnham Center for Chemical Genomics, 2016).
The entries are a selection whose mix differs from that of the whole data set. Some structures show a salt or complex split into parts, the way the source records it. Calls of active or inactive are those of the source. Cut-off read from the data, not from the text of the source: active = activity change above about 30% (passing the limit was not always enough); inactive = the rest.

By UniProt entry, the sequences of proteins in these tests, tags left out.
UniProt P41235, whole entry: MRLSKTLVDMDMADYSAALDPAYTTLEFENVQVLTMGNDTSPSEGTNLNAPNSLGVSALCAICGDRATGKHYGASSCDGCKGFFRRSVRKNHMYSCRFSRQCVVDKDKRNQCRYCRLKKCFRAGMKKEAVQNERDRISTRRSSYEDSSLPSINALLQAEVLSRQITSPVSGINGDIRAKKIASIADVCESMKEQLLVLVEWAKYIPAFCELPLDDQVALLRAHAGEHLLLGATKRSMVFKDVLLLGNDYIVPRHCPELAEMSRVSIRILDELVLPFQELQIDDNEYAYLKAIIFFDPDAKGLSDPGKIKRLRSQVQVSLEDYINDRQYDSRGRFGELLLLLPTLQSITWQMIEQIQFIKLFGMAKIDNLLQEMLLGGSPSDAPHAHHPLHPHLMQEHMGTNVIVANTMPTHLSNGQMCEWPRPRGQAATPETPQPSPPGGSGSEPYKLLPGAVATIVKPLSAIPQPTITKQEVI

biological target: Hepatocyte nuclear factor 4-alpha (Homo sapiens) (UniProt P41235); experiment: HNF4-alpha DNA association modulation – biochemical, fluorescence polarization, FITC-DNA, primary screen (AID 1224865); details: HNF4a-FITC DNA binding, 1 h, at 10 µM, stronger effect = higher value

Row | Structure (SMILES) | activity change
1 | CCCOc1ccc(NP(C)(=O)Oc2ccc(Cl)cc2)cc1 (configuration not stated) | inactive: 0.88%
2 | O=P1(Nc2ncccn2)COc2ccccc2OC1 | inactive: -2.81%
3 | COc1ccccc1OP(C)(=O)Nc1c(C)cccc1C (configuration not stated) | inactive: -1.07%
4 | CN1CCCCC1COC(=O)C1(O)c2ccccc2CCc2ccccc21 (configuration not stated) | inactive: -2.25%
5 | CCCC1OP(=O)(Nc2ccccc2)OCC1CC (configuration not stated) | inactive: -0.81%
6 | O=C(/C=C/c1ccccc1)OC1CN2CCC1CC2 (configuration not stated) | inactive: 1.64%
7 | CCOC(=O)C(CC)C1=NC(C)(C)Cc2ccccc21.O=[N+]([O-])c1cc([N+](=O)[O-])c(O)c([N+](=O)[O-])c1 (configuration not stated) | inactive: 0.7%
8 | O=[N+]([O-])c1cc([N+](=O)[O-])c(Nc2nnnn2CCO)c([N+](=O)[O-])c1 | inactive: 3.03%
9 | CN(C)C1(CNC(=O)c2ccc(S(C)(=O)=O)cc2)CCCCC1 | inactive: 3.23%
10 | CC1=C2N=C(C=C3N=C(C(C)=C4[N-][C@@](C)([C@@H]5N=C1[C@](C)(CCC(=O)NC[C@@H](C)OP(=O)([O-])O[C@H]1[C@@H](O)[C@@H](n6cnc7cc(C)c(C)cc76)O[C@@H]1CO)[C@H]5CC(N)=O)[C@@](C)(CC(N)=O)[C@@H]4CCC(N)=O)[C@@](C)(CC(N)=O)[C@@H]3CCC(N)=O)C(C)(C)[C@@H]2CCC(N)=O.[C-]#N.[Co+3] | inactive: 3.22%
11 | COc1cc(C2NCCC3(OCCO3)C2(C)C)cc(OC)c1OC.O=[N+]([O-])c1cc([N+](=O)[O-])c(O)c([N+](=O)[O-])c1 (configuration not stated) | inactive: -0.12%
12 | CC1CCC(C(C)C)C(OP(=O)(Nc2ccccn2)c2ccccc2)C1 (configuration not stated) | inactive: -1.5%
13 | Cc1ccc(C(=O)OC2CN3CCC2CC3)cc1 (configuration not stated) | inactive: 2.12%
14 | Cc1nn(-c2ccccc2)c2c1P(=O)(N1CCOCC1)N(C)C(c1ccccc1)=N2 (configuration not stated) | inactive: -3.16%
15 | CN(C(=O)Cc1ccc(Cl)c(Cl)c1)[C@H]1CC[C@@]2(CCCO2)C[C@@H]1N1CCCC1 | inactive: 0.49%
16 | CC1=NCCc2c1[nH]c1ccccc21.O=[N+]([O-])c1cc([N+](=O)[O-])c(O)c([N+](=O)[O-])c1 | inactive: 6.09%
17 | CN(C)C(=O)c1cc([N+](=O)[O-])cc2c1-c1c(cc([N+](=O)[O-])cc1[N+](=O)[O-])C2=O | inactive: 0.94%
18 | O=[N+]([O-])c1ccc2c(c1)nnn2O | inactive: -1.95%
19 | CN(C(=O)Cc1ccccc1)[C@@H]1CC[C@]2(CCCO2)C[C@H]1N1CCCC1 | inactive: 3.47%
20 | CCOP1(=S)c2c(C)nn(CCC#N)c2N=C(c2ccc(F)cc2)N1C (configuration not stated) | inactive: -4.35%
21 | N#CCCN(C(=O)COC(=O)C(O)(c1ccccc1)c1ccccc1)c1ccc(F)cc1 | inactive: -1.35%
22 | NC(=O)Nc1ccc([As](=O)(O)O)cc1 | inactive: 1.53%

Row | Structure (SMILES) | activity change
23 | Nc1ccccc1[As](=O)(O)c1ccccc1 | inactive: -1.58%
24 | O=C(O)COc1ccc([As](=O)(O)O)cc1[N+](=O)[O-] | inactive: -2.74%
25 | CS(=O)(=O)c1cc([N+](=O)[O-])c2no[n+]([O-])c2c1 | inactive: -2.89%
26 | O=P(Nc1nccs1)(c1ccccc1)c1nc2ccccc2s1 (configuration not stated) | inactive: -3.04%
27 | O=P(Nc1nccs1)(Oc1ccccc1)Oc1ccccc1 | inactive: -0.98%
28 | CCOP1(=S)c2c(C)nn(CCC#N)c2N=C(c2ccccc2F)N1C (configuration not stated) | inactive: -0.92%
29 | O=C(O)c1cccc(Nc2c([N+](=O)[O-])cc([N+](=O)[O-])cc2[N+](=O)[O-])c1 | inactive: -3.73%
30 | CCOP(=O)(Nc1cccc2ccccc12)OCC | inactive: 1.23%
31 | CCCOP(=S)(Nc1nc(N)cc(=O)[nH]1)OCCC | inactive: -0.04%
32 | Cc1ccc(C)c(NP(C)(=O)Oc2ccccc2)c1 (configuration not stated) | inactive: 1.13%
33 | Cc1ccc(NCCc2c([N+](=O)[O-])cc([N+](=O)[O-])cc2[N+](=O)[O-])cc1 | inactive: 1.19%
34 | CP(=O)(Nc1cccc(Br)c1)Oc1ccccc1 (configuration not stated) | inactive: 4.51%
35 | Cc1cc(C)cc(OP(C)(=O)Nc2ccccn2)c1 (configuration not stated) | inactive: -1.35%
36 | CCOC(=O)c1ccc(NP(C)(=O)Oc2cc(C)cc(C)c2)cc1 (configuration not stated) | inactive: 0.83%
37 | Cc1cc(C)cc(OP(C)(=O)Nc2ccc(C)cc2C)c1 (configuration not stated) | inactive: 3.76%
38 | O=[As](O)(c1cccc(O)c1)c1cccc(O)c1 | inactive: 0.98%
39 | Cc1cccc(OCC(=O)OC2CN3CCC2CC3)c1 (configuration not stated) | inactive: 0.59%
40 | COc1ccccc1OP(C)(=O)Nc1cccc(Br)c1 (configuration not stated) | inactive: 2.6%
41 | CS(=O)(=O)c1ccc(Cl)c(NC(=O)COC(=O)C(O)(c2ccccc2)c2ccccc2)c1 | inactive: -0.57%
42 | COc1cc(C(=O)NCC2(N3CCOCC3)CCCCC2)cc(Cl)c1OC(C)C | inactive: 2.27%
43 | O=[As](O)(O)c1cccnc1 | inactive: 9.11%
44 | O=C(OC1CN2CCC1CC2)c1ccc(Cl)cc1 (configuration not stated) | inactive: 7.52%

Row | Structure (SMILES) | activity change
45 | CC(=O)Nc1ccc(Oc2c([N+](=O)[O-])cc([N+](=O)[O-])cc2[N+](=O)[O-])cc1 | inactive: 0.27%
46 | COc1ccc2c(c1O)-c1c(O)c(OC)cc3c1[C@H](C2)[N+](C)(C)CC3.O=[N+]([O-])c1cc([N+](=O)[O-])c([O-])c([N+](=O)[O-])c1[O-] | inactive: -5.48%
47 | CC(=O)Nc1ccc([As](=O)(O)O)c(O)c1 | inactive: -0.74%
48 | COC(=O)C1(C)COP(=O)(NCc2ccccc2)OC1 (configuration not stated) | inactive: -0.28%
49 | O=C(OC1CN2CCC1CC2)c1ccc([N+](=O)[O-])cc1 (configuration not stated) | inactive: 0.99%
50 | N#C/C(=C\c1ccc(N(CCBr)CCBr)cc1)C(N)=O | inactive: 14.7%
51 | CC(=O)c1ccc(N2CC2c2ccncc2)cc1 (configuration not stated) | inactive: 2.14%
52 | C[C@@H]1C=CCP(=O)(Oc2ccccc2)O1 (some centres not stated) | inactive: 2.96%
53 | C[C@H]1OP(=O)(Oc2ccccc2)C[C@@H]2O[C@@H]21 (some centres not stated) | inactive: 2.05%
54 | Cc1ccccc1CN(C)C(=O)COC(=O)C(O)(c1ccccc1)c1ccccc1 | inactive: -2.49%
55 | O=C(OCCN1CCN(CCOCc2ccccc2)CC1)C(O)(c1ccccc1)c1ccccc1 | inactive: 2.41%
56 | CP(=O)(Nc1ccccc1F)Oc1ccccc1 (configuration not stated) | inactive: -4.1%
57 | CCc1cc(O)c([N+](=O)[O-])c(C)c1[N+](=O)[O-] | inactive: 2.87%
58 | CC(C)c1ccc(OP(C)(=O)Nc2ccc(SC(F)(F)F)cc2)cc1 (configuration not stated) | inactive: -0.64%
59 | CC(C)(C)C(=O)NC(Sc1ccccc1)C(Cl)(Cl)Cl (configuration not stated) | inactive: -0.65%
60 | CCOc1ccc(C2=NCC(CBr)S2)cc1 (configuration not stated) | inactive: -0.66%
61 | O=P1(Nc2nc3ccc(Cl)cc3s2)COc2ccccc2O1 (configuration not stated) | inactive: 4.59%
62 | O=[N+]([O-])c1cc([N+](=O)[O-])c(Nc2ccc(Cl)cc2)c([N+](=O)[O-])c1 | inactive: 1.58%
63 | CP(=O)(Nc1ccccc1)Oc1ccc(F)cc1 (configuration not stated) | inactive: -1.44%
64 | CN(C)C(=O)Oc1noc2ccccc12 | inactive: -0.35%
65 | O=[N+]([O-])c1cc([N+](=O)[O-])c(OC2CCCCC2O)c([N+](=O)[O-])c1 (configuration not stated) | inactive: 0.57%
66 | CCCCCOc1ccc(NP(C)(=O)Oc2ccc(Cl)cc2Cl)cc1 (configuration not stated) | inactive: 4.34%

Row | Structure (SMILES) | activity change
67 | O=c1c2cc([N+](=O)[O-])ccc2[nH]c2c([N+](=O)[O-])cc([N+](=O)[O-])cc12 | inactive: 7.06%
68 | Cc1ccccc1OP(=O)(Nc1ccccn1)Oc1ccccc1C | inactive: -2.28%
69 | CC(NC(=O)COC(=O)C(O)(c1ccccc1)c1ccccc1)c1ccccc1 (configuration not stated) | inactive: -3.57%
70 | CC(=O)NC(SC(=S)N(CC(C)C)CC(C)C)C(Cl)(Cl)Cl (configuration not stated) | inactive: -0.15%
71 | Cc1ccc(OP(=O)(Nc2ccccn2)Oc2ccc(C)cc2)cc1 | inactive: 1.41%
72 | Cc1c([N+](=O)[O-])cc([N+](=O)[O-])c(Br)c1[N+](=O)[O-] | inactive: -2.96%
73 | COC(=O)c1cc2c(s1)N=C(c1ccccc1)N(C)P2(=O)N1CCOCC1 (configuration not stated) | inactive: 0.3%
74 | CCN(CC)CCCOC(=O)C(O)(c1ccccc1)C1CCCCC1 (configuration not stated) | inactive: 1.72%
75 | CCC(=O)N1C2C3N(C(=O)CC)C1C1N(C(=O)CC)C(C(N1C(=O)CC)N3C(=O)CC)N2C(=O)CC | inactive: 2.77%
76 | O=C(OC1CN2CCC1CC2)c1ccccc1 (configuration not stated) | inactive: 5.17%
77 | CCOC(=O)c1ccc(NP(C)(=O)Oc2ccc(F)cc2)cc1 (configuration not stated) | inactive: -0.54%
78 | O=P1(N(CCCl)CCCl)OCCC2CCCCN21 (configuration not stated) | inactive: 5.92%
79 | COc1ccc(OP(C)(=O)Nc2ccc(SC(F)(F)F)cc2)cc1 (configuration not stated) | inactive: 0.5%
80 | CCNC(=S)/N=C(\N)N[N+](=O)[O-] | inactive: -0.95%
81 | O=C(NC1CCS(=O)(=O)C1)NP(=S)(Oc1ccccc1)Oc1ccccc1 (configuration not stated) | inactive: 1.8%
82 | Cc1ccc(NP(=O)(Oc2cccc(C)c2)Oc2cccc(C)c2)nc1 | inactive: 6.59%
83 | CCN(CC)CCCNc1ccccc1[N+](=O)[O-].O=[N+]([O-])c1cc([N+](=O)[O-])c(O)c([N+](=O)[O-])c1 | inactive: -0.03%
84 | c1ccc(-c2nn[nH]n2)c(-c2nn[nH]n2)c1 | inactive: 0.65%
85 | Nc1ccc([As](=O)(O)c2ccc([N+](=O)[O-])cc2)cc1 | inactive: -1.16%
86 | C(Cc1nn[nH]n1)Cc1nn[nH]n1 | inactive: -0.59%
87 | Cc1c(C(c2ccc3c(c2)OCO3)c2c(C)n(C)n(-c3ccccc3)c2=O)c(=O)n(-c2ccccc2)n1C.O=[N+]([O-])c1cc([N+](=O)[O-])c(O)c([N+](=O)[O-])c1 | inactive: 4.68%
